Values quoted from earlier work as cited in PMC3807576 (ACS medicinal chemistry letters, 2013).

Protein sequences, listed by entry. Tags and fused reporters are not part of them. Residues count along the entry.
UniProt P29317, 24-976: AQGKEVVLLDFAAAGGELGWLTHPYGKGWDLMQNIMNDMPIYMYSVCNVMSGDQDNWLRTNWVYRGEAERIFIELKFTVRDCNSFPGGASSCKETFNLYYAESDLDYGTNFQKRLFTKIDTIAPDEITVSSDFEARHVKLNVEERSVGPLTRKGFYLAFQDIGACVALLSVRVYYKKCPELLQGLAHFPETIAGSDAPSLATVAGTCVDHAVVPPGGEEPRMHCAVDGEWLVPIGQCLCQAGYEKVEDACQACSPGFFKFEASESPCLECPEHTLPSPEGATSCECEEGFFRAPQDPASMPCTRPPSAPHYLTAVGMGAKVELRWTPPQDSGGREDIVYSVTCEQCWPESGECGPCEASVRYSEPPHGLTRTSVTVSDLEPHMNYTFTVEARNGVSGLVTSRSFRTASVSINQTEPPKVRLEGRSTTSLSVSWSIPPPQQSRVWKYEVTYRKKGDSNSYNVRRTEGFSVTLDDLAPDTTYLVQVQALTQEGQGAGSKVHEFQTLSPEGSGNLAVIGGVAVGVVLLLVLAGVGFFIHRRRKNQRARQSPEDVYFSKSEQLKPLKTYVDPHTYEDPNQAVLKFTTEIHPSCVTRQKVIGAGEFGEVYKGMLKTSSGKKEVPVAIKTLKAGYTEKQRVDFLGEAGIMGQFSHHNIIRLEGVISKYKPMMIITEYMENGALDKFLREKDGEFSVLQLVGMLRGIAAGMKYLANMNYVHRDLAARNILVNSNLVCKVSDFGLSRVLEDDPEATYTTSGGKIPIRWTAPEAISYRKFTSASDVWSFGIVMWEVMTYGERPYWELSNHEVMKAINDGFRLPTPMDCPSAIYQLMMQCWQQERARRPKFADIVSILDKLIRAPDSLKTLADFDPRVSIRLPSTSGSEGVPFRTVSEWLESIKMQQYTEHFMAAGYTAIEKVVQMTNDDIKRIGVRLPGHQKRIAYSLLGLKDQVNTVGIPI

Legend:
[1] = system: Erk1/2 MAP kinases and Akt; conditions: PC3 prostate cancer cells, 50 μM
EphA2 = EphA2 (Homo sapiens, UniProt P29317)

binding affinity (EphA2; depending on the addition of linkers, biotin and other groups) | Sequence | downstream inhibition of Erk1/2 MAP kinases and Akt [1] | selectivity of binding among Eph receptors (EphA2)
 | SWLAYPGAVSYR | downstream inhibition of Erk1/2 MAP kinases and Akt | 
low micromolar to submicromolar | YSAYPDSVPMMS |  | bind in a selective manner to EphA2 and not other Eph receptors
